Measurements taken from patent US8753308B2.
This is a selection: effects in other tests are not listed, and their absence says nothing.

What was measured:
[1] = SUFENTA and Actiq package inserts; cited from earlier work
[2] = cited from earlier work
[3] = Human clinical PK study: sublingual sufentanil dosage forms vs IV sufentanil in healthy volunteers
[4] = PK of sublingual sufentanil solution and ingested sufentanil dosage form vs IV sufentanil in Beagle dogs (Example 4); details: denominator literature half-life 139 min, listed as IV sufentanil
[5] = in vivo; cited from earlier work

SMILES	protein binding [1]	pKa [2]	time spent above 50% of Cmax ([3]; average for the 12 volunteers) [min]	Tmax ([3]; single administration) [min]	Therapeutic Time Ratio [4]	bioavailability from the GI route [5] [%]
CCC(=O)N(c1ccccc1)C1(COC)CCN(CCc2cccs2)CC1	91-93%	8.01	10	9.6 ± 1.8	0.03	
CCC(=O)N(c1ccccc1)C1CCN(CCc2ccccc2)CC1		8.43				30
